Among the data in US11608341B2, “Substituted tetrahydropyrazolo[3,4-d]pyrimidines and tetrahydropyrazolo[4,3-d]pyrimidines as C5A receptor modulators” (Idorsia Pharmaceuticals Ltd., priority 2018, dated 2023) are IC50 values, retold here.

Protein sequences, listed by entry. Tags and fused reporters are not part of them.
UniProt P21730, whole entry: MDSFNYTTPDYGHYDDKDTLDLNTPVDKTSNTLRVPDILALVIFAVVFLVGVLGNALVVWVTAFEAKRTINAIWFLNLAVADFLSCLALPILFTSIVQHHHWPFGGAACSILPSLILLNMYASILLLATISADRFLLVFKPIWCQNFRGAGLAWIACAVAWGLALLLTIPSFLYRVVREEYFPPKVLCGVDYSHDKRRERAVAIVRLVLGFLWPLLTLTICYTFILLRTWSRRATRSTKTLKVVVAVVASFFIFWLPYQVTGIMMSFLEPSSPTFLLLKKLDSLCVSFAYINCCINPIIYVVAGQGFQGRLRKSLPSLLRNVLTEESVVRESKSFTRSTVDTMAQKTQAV

For this test, the target named is C5AR1 (Homo sapiens, UniProt P21730). Description: In vitro assay: antagonism of C5a-induced beta-arrestin recruitment (PathHunter) in CHO-K1 C5AR1 beta-arrestin cell line. As to conditions: read-out: C5aR IC50, antagonistic activity, 1-10 nM C5a agonist, geometric mean where several measurements.
As to `Cc1cccc(F)c1N1CCC(N2Cc3[nH]cnc3N(Cc3ccccc3C(F)(F)F)C2=O)CC1`, the IC50 came to 466 nM.

For the molecule `COc1nccc(C)c1N1CCC(N2C(=O)N(Cc3ccccc3C3CC3)c3nn(C)cc3C2C)CC1` (single isomer, unassigned), the concentration for half-maximal inhibition (IC50) turned out to be 8 nM. The value for `CC1c2cn(C)nc2N(Cc2ccccc2C(F)(F)F)C(=O)N1C1CCN(c2c(F)cccc2C2CC2)CC1` (single isomer, unassigned) was 14 nM; that for `CC1c2cn(C3CC3)nc2N(Cc2ccccc2C2CC2)C(=O)N1C1CCN(c2c(F)cccc2Cl)CC1` (single isomer, unassigned) was 15 nM; that for `Cc1cccc(F)c1N1CCC(N2Cc3[nH]ncc3N(Cc3ccccc3C(F)(F)F)C2=O)CC1` was 10 nM. The value for `Cc1cccc(F)c1N1CCC(N2Cc3cnn(C)c3N(Cc3ccccc3C(F)(F)F)C2=O)CC1` was 341 nM; that for `Cc1cccc(F)c1N1CCC(N2Cc3n[nH]nc3N(Cc3ccccc3C(F)(F)F)C2=O)CC1` was 20 nM.

With `[2H]C([2H])([2H])n1cc2c(n1)N(Cc1ccccc1C(F)(F)F)C(=O)N(C1CCN(c3c(C)cccc3F)CC1)C2`, the half-maximal inhibitory concentration (IC50) stood at 8 nM. The value for `COc1nccc(C(F)F)c1N1CCC(N2C(=O)N(Cc3ccccc3C3CC3)c3nn(C)cc3C2C)CC1` (single isomer, unassigned) was 10 nM. As to `C[C@@H]1c2cn(C)nc2N(Cc2ccccc2C2CC2)C(=O)N1C1CCN(c2c(F)cccc2C(F)F)CC1`, the half-inhibitory concentration (IC50) stood at 182 nM. For the molecule `Cc1cccc(F)c1N1CCC(N2Cc3cn(COCC[Si](C)(C)C)nc3N(Cc3ccccc3C(F)(F)F)C2=O)CC1`, the IC50 worked out at 16 nM. For `[2H]C([2H])([2H])C([2H])(C([2H])([2H])[2H])C([2H])([2H])n1cc2c(n1)N(Cc1ccccc1C(F)(F)F)C(=O)N(C1CCN(c3c(C)cccc3F)CC1)C2`, the IC50 is 10 nM.

Consider `Cc1cccc(F)c1N1CCC(N2Cc3nn(C)cc3N(Cc3ccccc3C(F)(F)F)C2=O)CC1`, for which the IC50 came to 36 nM. With `[2H]C([2H])([2H])C(n1cc2c(n1)N(Cc1ccccc1C(F)(F)F)C(=O)N(C1CCN(c3c(C)cccc3F)CC1)C2)C([2H])([2H])[2H]`, the IC50 is 10 nM. Turning to `Cn1cc2c(n1)N(Cc1ccccc1C1CC1)C(=O)N(C1CCN(c3c(F)cccc3C#N)CC1)C2`, the IC50 amounted to 18 nM. The value for `COc1nccc(C(F)F)c1N1CCC(N2C(=O)N(Cc3ccccc3C3CC3)c3nn(C4CCCCO4)cc3C2C)CC1` (stereo not drawn) was 84 nM; that for `Cc1cccc(F)c1N1CCC(N2Cc3cn(CC4CCCN4)nc3N(Cc3ccccc3C(F)(F)F)C2=O)CC1` (stereo not drawn) was 354 nM; that for `Cc1cccc(F)c1N1CCC(N2Cc3c[nH]nc3N(Cc3ccccc3C(F)(F)F)C2=O)CC1` was 9 nM. In the case of `Cc1cccc(F)c1N1CCC(N2Cc3cn(C4CCCC4NC(=O)OC(C)(C)C)nc3N(Cc3ccccc3C(F)(F)F)C2=O)CC1` (stereo not drawn) it was 24 nM; in that of `CCOCn1cc2c(n1)N(Cc1ccccc1C(F)(F)F)C(=O)N(C1CCN(c3c(C)cccc3F)CC1)C2`, 16 nM. In the case of `[2H]c1ccc(C(F)(F)F)c(CN2C(=O)N(C3CCN(c4c(C)cccc4F)CC3)Cc3cn(C)nc32)n1` it was 16 nM; in that of `[2H]C([2H])([2H])C([2H])([2H])n1cc2c(n1)N(Cc1ccccc1C(F)(F)F)C(=O)N(C1CCN(c3c(C)cccc3F)CC1)C2`, 6 nM. In the case of `Cc1cccc(F)c1N1CCC(N2Cc3c(cnn3C)N(Cc3ccccc3C(F)(F)F)C2=O)CC1`, the half-inhibitory concentration (IC50) came to 293 nM. In the case of `[2H]C([2H])([2H])C([2H])(n1cc2c(n1)N(Cc1ccccc1C(F)(F)F)C(=O)N(C1CCN(c3c(C)cccc3F)CC1)C2)C([2H])([2H])[2H]` it was 9 nM. In the case of `Cc1cccc(F)c1N1CCC(N2Cc3cn(C4CC4)nc3N(Cc3ncccc3C(F)(F)F)C2=O)CC1` it was 3 nM; in that of `Cc1cccc(F)c1N1CCC(N2Cc3nn(C)cc3N(Cc3nccnc3C(F)(F)F)C2=O)CC1`, 603 nM. The value for `Cc1cccc(F)c1N1CCC(N2Cc3c(ncn3COCC[Si](C)(C)C)N(Cc3ccccc3C(F)(F)F)C2=O)CC1` was 28 nM; that for `Cc1cccc(F)c1N1CCC(N2Cc3nn(C)cc3N(Cc3cnccc3C(F)(F)F)C2=O)CC1` was 226 nM. On to `Cc1cccc(F)c1N1CCC(N2Cc3c(cnn3COCC[Si](C)(C)C)N(Cc3ccccc3C(F)(F)F)C2=O)CC1`, for which the 50% inhibitory concentration (IC50) came out at 85 nM. In the case of `C[C@H]1c2cn(C)nc2N(Cc2ccccc2C2CC2)C(=O)N1C1CCN(c2c(F)cccc2C(F)F)CC1` it was 9 nM.
